Data taken from publication PMC6946680, “Modulation of brain cation-Cl^− cotransport via the SPAK kinase inhibitor ZT-1a” (Nature Communications, 2020).

Biological target: human SPAK 452-547(C-term) with WNK peptide (RFQV) (Homo sapiens, UniProt Q9UEW8)
Test: Fluorescence polarization of SPAK–WNK peptide interaction
Assay type: binding
Settings: read-out: IC50, decrease in fluorescence polarization (SPAK–WNK peptide); 10 nM Lumino-Green WNK peptide

**Q.** With CCN1/C(=C\C2=CC(=C/C=C/c3sc4ccccc4[n+]3CC)/CC(C)C2)Sc2ccccc21 (stereo not shown) as the compound, how does the pIC50 read?
**A.** Its pIC50 is 5.60.

pIC50: −log10 of the molar value.
